Data on one substance can be found in patent publication US20140243210A1, “PURIFICATION OF IMMUNOGLOBULINS USING AFFINITY CHROMATOGRAPHY AND PEPTIDE LIGANDS” (priority 2005, published 2014).

The subject of this experiment is Fc fragment of human IgG (HIgG). Nature of the experiment: Secondary screening, batch format, competitive and non-competitive modes. Format: binding. The conditions noted are these: first round. The method, then: A secondary screening step was conducted in a batch format to confirm the binding of the target protein to the peptide ligands from the primary screening. Some peptides that bound weakly to the target protein could be eliminated by the secondary screening. A total of nine leads were examined together with two positive controls, Protein A Sepharose Cl-4B and MABsorbent A2P, and two negative controls, acetylated and nonacetylated Toyopearl amino resin (Tosoh Bioscience). The batch format was used in both competitive and non-competitive modes. The non-competitive mode involved screening using only pure target proteins in PBS buffer. For the competitive mode, target proteins were spiked into mammalian culture medium MEM (Minimum Essential Medium) containing 10% fetal calf serum (FCS) and 5% tryptose phosphate broth (TPB).
Two target proteins, the Fc fragment of human IgG (HIgG) and intact HIgG, were applied at a concentration of 1 μM. […] After centrifugation each solution was collected into scintillation fluid for radioactivity counting. The total unbound protein was determined by combining the counts of unbound protein and the wash of PBS. Finally, resins were suspended in scintillation liquid and counted for radioactivity in the same manner, allowing a total radioactivity balance.

For “Protein A: protein A immobilized by the CNBr method to 4% cross-linked agarose beads (Amersham Biosciences); positive control [reference compound]”, the “Bound %, Fc fragment, Non-competitive” value (14C-Fc 1 μM in PBS) is 93.67%. In addition, the “Bound %, Fc fragment, Competitive” value (14C-Fc 1 μM spiked in MEM (10% FCS, 5% TPB)) was found to be 78.63%.
